The assay addresses Butyrylcholinesterase (BuChE) (Homo sapiens, UniProt P06276). Description: Butyrylcholinesterase inhibition efficiency (butyrylthiocholine/DTNB absorbance). Format: biochemical. As to conditions: 0.5 U/ml enzyme, butyrylthiocholine substrate, compound 0-200 μM. As for the experimental part:
Concentrations of 0, 2, 5, 10, 20, 50, 100, and 200 μM of the synthesized compounds were prepared by dilution in 10% DMSO, 63% phosphate buffer, and 27% tween 80, and 50 μl was dispensed into a 96-well plate. Acetylcholinesterase or butyrylcholinesterase was prepared at 0.5 U/ml, 50 μl was added to a 96-well plate, mixed with the aliquoted compound, and left for 10 minutes. The substrate, acetylthiocholine or butyrylthiocholine, was prepared at 0.4mg/ml, then 50 μl was added to a 96-well plate and left for 20 minutes. Dithionitrobenzoic acid (DTNB) was prepared at 1.2 mg/ml, then 50 μl was added to a 96-well plate and left for 10minutes.

By UniProt entry, the sequences of proteins in these tests, tags left out. Residues count along the entry.
UniProt P06276, 29-602: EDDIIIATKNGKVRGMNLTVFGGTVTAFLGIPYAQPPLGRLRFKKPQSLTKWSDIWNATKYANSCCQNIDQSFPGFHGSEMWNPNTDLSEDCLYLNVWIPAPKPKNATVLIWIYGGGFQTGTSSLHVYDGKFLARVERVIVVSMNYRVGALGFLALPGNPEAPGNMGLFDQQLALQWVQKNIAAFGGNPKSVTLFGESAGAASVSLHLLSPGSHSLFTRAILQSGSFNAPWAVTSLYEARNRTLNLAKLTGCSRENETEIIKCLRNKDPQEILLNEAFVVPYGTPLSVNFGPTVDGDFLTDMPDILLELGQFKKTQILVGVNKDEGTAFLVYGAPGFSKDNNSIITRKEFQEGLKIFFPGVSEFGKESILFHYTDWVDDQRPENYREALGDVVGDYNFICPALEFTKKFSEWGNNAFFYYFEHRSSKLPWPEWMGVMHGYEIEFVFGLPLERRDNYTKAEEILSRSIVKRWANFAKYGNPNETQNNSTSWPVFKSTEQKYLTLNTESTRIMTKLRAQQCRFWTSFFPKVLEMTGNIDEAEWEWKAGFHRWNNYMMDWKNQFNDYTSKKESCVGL

Experimental findings from patent US20240383830A1, “NOVEL CANNABIDIOL DERIVATIVE, METHOD FOR PREPARING SAME, AND COMPOSITION FOR COGNITIVE FUNCTION I[…]” (priority 2021, published 2024) are described below.

One may read the IC50 as the concentration needed to halve the response being measured. The low end stands for greater potency, the high end for weaker potency.

As to `CCN(C)C(=O)Oc1cccc([C@H](C)N(C)C)c1` [rivastigmine, reference compound], it took 14.9 µM to reach half-maximal inhibition (IC50).
